Results reported in patent US9090621B2, “Tyrosine kinase inhibitors” (Principia Biopharma Inc., priority 2013, dated 2015).

Sequences of proteins named here, by UniProt entry; tags and fusion partners are left off. A change or cut given only in a name is not applied to a line headed by its entry.
UniProt Q06187: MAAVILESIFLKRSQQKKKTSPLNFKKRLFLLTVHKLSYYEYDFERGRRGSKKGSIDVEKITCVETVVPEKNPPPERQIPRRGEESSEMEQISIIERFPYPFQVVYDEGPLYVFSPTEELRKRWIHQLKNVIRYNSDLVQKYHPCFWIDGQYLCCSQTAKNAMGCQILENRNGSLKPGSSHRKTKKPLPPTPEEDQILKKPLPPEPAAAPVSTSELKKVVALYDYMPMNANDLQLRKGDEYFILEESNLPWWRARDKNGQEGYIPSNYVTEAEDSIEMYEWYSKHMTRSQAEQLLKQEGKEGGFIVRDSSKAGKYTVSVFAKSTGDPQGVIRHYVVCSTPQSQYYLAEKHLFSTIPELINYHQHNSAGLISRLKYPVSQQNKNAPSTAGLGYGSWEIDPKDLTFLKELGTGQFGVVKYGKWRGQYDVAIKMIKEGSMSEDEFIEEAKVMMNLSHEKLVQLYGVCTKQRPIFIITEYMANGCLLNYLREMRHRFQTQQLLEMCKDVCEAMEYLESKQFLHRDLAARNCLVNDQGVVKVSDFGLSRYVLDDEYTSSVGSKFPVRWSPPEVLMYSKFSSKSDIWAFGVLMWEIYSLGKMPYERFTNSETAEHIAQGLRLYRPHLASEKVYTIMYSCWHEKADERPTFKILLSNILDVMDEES

Target: human recombinant Btk (Homo sapiens (Human), UniProt Q06187)
Assay: biochemical
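Further: Read-out is the quantity of phosphorylated substrate product formed, and IC50 reflects inhibition of Btk kinase activity.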

For CC(C)C=C(C#N)C(=O)N[C@@H](C)Cn1nc(-c2ccc(Oc3ccccc3)cc2F)c2c(N)ncnc21 [Example 183B, (S)-N-(1-(4-amino-3-(2-fluoro-4-phenoxyphenyl)-1H-pyrazolo[3,4-d]pyrimidin-1-yl)propan-2-yl)-2-cyano-4-methylpent-2-enamide], the IC50 was 3 nM.
